Compound activity (PubChem BioAssay)
Cneo AK release = Cryptococcus neoformans lysis via adenylate kinase release | lysis activity, % at 15 µM | 360,000 tested, 0.2% active | C. neoformans lysis, adenylate kinase release luminescence, 4 h; normalised: neutral wells 0, clomiphene wells 100;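 active = mean lysis activity across replicates of at least 80%, whatever share of replicates individually reach that level; inactive = mean lysis activity below 80%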
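Signal: Adenylate kinase release luminescence | Assay system: Log-phase Cryptococcus neoformans yeast cells | Input: Cells at 5 × 10^6 per mL | Buffer or medium: Fresh YPD growth medium | Compound: Single dose | Schedule: Static 4 h at 37 °C with compound, 1 h detection | Controls: Clomiphene | Read-out: Luminescence rise reflecting yeast cell lysis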
CDK5 inh = blocks human CDK5/p35 kinase activity; inhibition, % at 10 µM; Recombinant CDK5/p35, ADP-Glo luminescence, 60 min; 330,000 tested, 0.01% active; Q00535+Q15078; AID 488839;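 active = highest replicate inhibition of at least 50% and at least 75% of replicates reaching 50%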;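 also: plate controls were DMSO neutral control for no effect and GW8510 at 10 µM for full effect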
Rtt109 Vps75 = inhibitors of Candida albicans Rtt109/Vps75 histone acetyltransferase; Q5AAJ8; purified Rtt109/Vps75, ThioGlo CoA-SH fluorescence, 4 h; inhibition, % at 34.9 µM; 330,000 tested, 0.16% active;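 active = inhibition of at least 50% in every replicate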
Yeast UUG start = alters start codon recognition fidelity in yeast; AID 602363; activity score, % at 18.7 µM; 350,000 tested, 0.13% active; S. cerevisiae UUG-firefly luciferase reporter, luminescence/redox ratio;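 active means replicate mean at a twofold rise or more, about +100% in these data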;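 further: firefly luciferase made from a UUG start codon reports start codon fidelity; reporter light over untreated wells divided by growth signal over untreated wells; some hits fall short of that in this replicate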
C2C12 statin = suppression of simvastatin myotoxicity. C2C12 myotubes + simvastatin, ATP luminescence, 48 h; scaled: DMSO 0, geranylgeraniol control 100. 330,000 tested, 0.78% active. rescue of ATP level, % at 7.49 µM;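 active = mean ATP rescue above about 67%, or every replicate alone reaching that limit, limit read from the data, passing the limit was not always enough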;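 also: myotubes were challenged with 10 µM simvastatin during compound exposure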
Numbers without * were called inactive. Rows were chosen to be rich in hits. Some 1% of all compounds tested hit in one or more screens of this group.

`COc1ccc(N2CCN(C(CNC(=O)c3ccc4c(c3)OCO4)c3cccnc3)CC2)cc1` (configuration not stated) gave Cneo AK release 1, CDK5 inh 0, Rtt109 Vps75 6, Yeast UUG start -7 and C2C12 statin 22.
`CC1(C)Cc2c(C#N)c(N3CCN(C(=O)c4ccco4)CC3)nc(-c3ccco3)c2CS1` gave Cneo AK release -3, CDK5 inh -1, Rtt109 Vps75 -1, Yeast UUG start -13 and C2C12 statin 121*.
CO[C@H]1CN(C)C(=O)c2cc(NC(C)=O)ccc2OC[C@H](C)N(CC2CCCCC2)C[C@@H]1C was read as Cneo AK release 0 and C2C12 statin 5.
For CC(=O)c1cc(F)c(N2CCCC2)cc1C the results were Cneo AK release 1, CDK5 inh 1, Rtt109 Vps75 0, Yeast UUG start -7 and C2C12 statin 101*.
CCCNC(=O)Nc1ccc2c(c1)C(=O)N(C)C[C@H](OC)[C@H](C)CN(Cc1ccc(-c3ccccn3)cc1)[C@@H](C)CO2 was read as C2C12 statin -5.
`O=C(C[C@@H]1CC[C@H](NC(=O)C2CCC2)[C@@H](CO)O1)NCCCN1CCOCC1` gave Cneo AK release -2, Yeast UUG start -20 and C2C12 statin -3.
Cc1noc(C)c1NC(=O)N(C)C[C@H]1Oc2c(NC(=O)C3CCOCC3)cccc2C(=O)N([C@@H](C)CO)C[C@H]1C was read as Cneo AK release 4, Yeast UUG start -6 and C2C12 statin -13.
Cc1ccc2nc(-c3ccc(NC(=S)NC4CC(C)(C)NC(C)(C)C4)cc3)sc2c1 was read as Cneo AK release -11, CDK5 inh 0, Rtt109 Vps75 62*, Yeast UUG start -1 and C2C12 statin 1.
`Cc1ccc2nc(-c3ccc(NC(=S)NC(=O)C(C)C)cc3)sc2c1` gave Cneo AK release -2, CDK5 inh 3, Rtt109 Vps75 4, Yeast UUG start -12 and C2C12 statin -22.
O=C(/C=C/c1ccccc1)NC(=S)NNC(=O)Cc1cccs1 was read as Cneo AK release 1, CDK5 inh 0, Rtt109 Vps75 -19, Yeast UUG start -21 and C2C12 statin 104*.
`CCCC(=O)Nc1ccc2c(c1)C(=O)N(C)C[C@H](OC)[C@H](C)CN(CC1CCOCC1)[C@H](C)CO2` gave C2C12 statin 1.
Screening Cc1cc(C)nc(N(C#N)Cc2ccccc2Cl)n1 returned Cneo AK release -1, CDK5 inh -2, Rtt109 Vps75 5, Yeast UUG start -35 and C2C12 statin 69*.
`Cc1ccc(C(=O)C2=C(O)C(=O)N(Cc3ccco3)C2c2ccc(N(C)C)cc2)o1` (configuration not stated) gave Cneo AK release 1, CDK5 inh -4, Rtt109 Vps75 21, Yeast UUG start -19 and C2C12 statin 1.
`CCCCOc1ccc(C2C(C(=O)c3ccc(C)o3)=C(O)C(=O)N2Cc2ccco2)cc1` (configuration not stated) gave Cneo AK release -1, CDK5 inh 0, Rtt109 Vps75 56*, Yeast UUG start -13 and C2C12 statin -7.
Screening Cc1noc(C)c1S(=O)(=O)Nc1ccc2c(c1)C(=O)N([C@@H](C)CO)C[C@H](C)[C@@H](CN(C)S(=O)(=O)c1ccc(Cl)cc1)OCCCC[C@H](C)O2 returned Cneo AK release -1, Yeast UUG start -24 and C2C12 statin -154.
COc1ccc(NC(=O)Nc2nnc(-c3cccs3)s2)cc1 was read as CDK5 inh 1 and Rtt109 Vps75 62*.
For O=C(Nc1ccccc1)Nc1nnc(-c2cccs2)s1 the results were Cneo AK release 0, CDK5 inh 0, Rtt109 Vps75 -4 and Yeast UUG start -6.
C[C@@H]1CN([C@@H](C)CO)S(=O)(=O)c2ccc(C3=CCCC3)cc2O[C@H]1CN(C)C(=O)C1CCCCC1 was read as Cneo AK release -3, Yeast UUG start -12 and C2C12 statin -39.
C[C@@H]1CN([C@H](C)CO)C(=O)c2cccc(NC(=O)Nc3ccccc3)c2O[C@@H]1CN(C)Cc1ccc(Cl)c(Cl)c1 was read as Cneo AK release 101*, Yeast UUG start 38 and C2C12 statin -15.
`C[C@H]1CN([C@@H](C)CO)C(=O)c2cccc(NC(=O)Nc3ccccc3)c2O[C@@H]1CN(C)Cc1ccc(Cl)c(Cl)c1` gave Cneo AK release 0, Yeast UUG start 19 and C2C12 statin -31.
`C[C@H](CO)N1C[C@H](C)[C@H](CN(C)Cc2ccc(Cl)c(Cl)c2)Oc2c(NC(=O)Nc3ccccc3)cccc2C1=O` gave Cneo AK release 90*, Yeast UUG start 32 and C2C12 statin 22.
`O=C(C1CC1)N1CCc2cc(S(=O)(=O)N3CCN(c4ccccc4)CC3)ccc21` gave Cneo AK release -1, CDK5 inh 2, Rtt109 Vps75 -3, Yeast UUG start -7 and C2C12 statin 10.
O=C(C1CCC1)N1CCCc2cc(S(=O)(=O)N3CCN(c4ccccc4)CC3)ccc21 was read as Cneo AK release 2, CDK5 inh 2, Rtt109 Vps75 5, Yeast UUG start -13 and C2C12 statin 149*.
Screening CCOc1nc(Nc2ccc(OC)c(Cl)c2)nc(N2CCN(c3ccc(OC)cc3)CC2)n1 returned Cneo AK release 0, CDK5 inh -2, Rtt109 Vps75 8 and Yeast UUG start 5.
`COc1ccc(Nc2ncc(C(=O)N3CCN(c4ccc(F)cc4)CC3)c3ccccc23)cc1` gave Cneo AK release -3, CDK5 inh 1, Rtt109 Vps75 3, Yeast UUG start 3 and C2C12 statin 157*.
`CCOc1nc(Nc2ccc(F)cc2)nc(N2CCN(c3ccc(OC)cc3)CC2)n1` gave Cneo AK release -2, CDK5 inh 0, Rtt109 Vps75 -3, Yeast UUG start -13 and C2C12 statin 110*.
Screening COc1ccc(Nc2ncc(C(=O)O)c3ccccc23)cc1 returned Cneo AK release 4, CDK5 inh -2, Rtt109 Vps75 0, Yeast UUG start -21 and C2C12 statin 1.
`O=C(Nc1ccc(S(=O)(=O)N2CCCCCC2)cc1)c1ccco1` gave Cneo AK release -4, CDK5 inh 0, Rtt109 Vps75 1, Yeast UUG start 0 and C2C12 statin -18.
C[C@H](NC(=O)c1ccco1)C(=O)Nc1ccc(S(=O)(=O)N2CCCC2)cc1 was read as Cneo AK release 2, CDK5 inh 0, Rtt109 Vps75 55*, Yeast UUG start -5 and C2C12 statin -1.
Screening C[C@H](CO)N1C[C@H](C)[C@H](CN(C)C(=O)Nc2ccc(F)cc2)Oc2c(NC(=O)c3nc4ccccc4s3)cccc2C1=O returned Cneo AK release -2 and Yeast UUG start -1.
For Cc1ccc(S(=O)(=O)N2CCN(Cc3nc4sc(C)c(C)c4c(=O)[nH]3)CC2)cc1 the results were Cneo AK release 13, CDK5 inh -1, Yeast UUG start -16 and C2C12 statin 23.

Part of the list above in order of formula weight, falling:
Screening CCOc1nc(Nc2ccc(OC)c(Cl)c2)nc(N2CCN(c3ccc(OC)cc3)CC2)n1 returned Cneo AK release 0, CDK5 inh -2, Rtt109 Vps75 8 and Yeast UUG start 5.
`COc1ccc(Nc2ncc(C(=O)N3CCN(c4ccc(F)cc4)CC3)c3ccccc23)cc1` gave Cneo AK release -3, CDK5 inh 1, Rtt109 Vps75 3, Yeast UUG start 3 and C2C12 statin 157*.
O=C(C1CCC1)N1CCCc2cc(S(=O)(=O)N3CCN(c4ccccc4)CC3)ccc21 was read as Cneo AK release 2, CDK5 inh 2, Rtt109 Vps75 5, Yeast UUG start -13 and C2C12 statin 149*.
